The text below walks through data of paper PMC8092523 (Antimicrobial Agents and Chemotherapy, 2021).

The subject of the test is pYL42 and pYL53 strains. The conditions noted are these: 960 min.

Turning to `CN[C@@H]1[C@H](O)[C@H](NC)[C@H]2O[C@]3(O)[C@H](O[C@@H]2[C@H]1O)O[C@H](C)C[C@H]3NC(=O)Cc1ccc(Cl)cn1` [Spa], the “MIC higher for pYL53 than for pYL42” value is reported as approximately 4 fold.
